Data published in PubChem BioAssay AID1159583 (ICCB-Longwood Screening Facility, Harvard Medical School, 2016).
The entries are a selection whose mix differs from that of the whole data set. Some of these compounds have results that are not shown, active ones among them. Active and inactive are the calls of the source. Rule as the data show it: active = fluorescence inhibition mostly above about 23% (no sharp cut-off); inactive = mostly below about 17%.

test: hypoxia reporter signal reduction in M. tuberculosis – fluorescence, absorbance growth readout, primary screen (AID 1159583); details: M. tuberculosis hypoxia-regulated fluorescent reporter, hits give high values, concentration not given here

Compound	fluorescence inhibition
O=C(NCC1(N2CCCCC2)CCCCC1)c1cccc(Cl)c1	inactive: 3.05%
COc1cccc(C(=O)NCC2(N3CCCCC3)CCCCC2)c1	inactive: 8.44%
COc1ccc(Cl)cc1C(=O)NCC1(N(C)C)CCCCC1	inactive: 13.2%
COc1cc(C(=O)NCC2(N(C)C)CCCCC2)c([N+](=O)[O-])cc1OC	inactive: 16%
CN(C)C1(CNC(=O)c2ccc(Br)cc2)CCCCC1	inactive: 13%
CC(C)Oc1ccc(C(=O)NCC2(N(C)C)CCCCC2)cc1	inactive: 16.1%
O=C(OCCN1CCCC1)C(O)(c1ccccc1)c1ccccc1	inactive: 14%
COc1ccc(Br)c(C(=O)NCC2(N3CCCCC3)CCCCC2)c1	inactive: -3.3%
O=C(OC1CN2CCC1CC2)C(CO)(c1ccccc1)c1ccccc1 (configuration not stated)	inactive: 0.75%
Cc1ccc(C(=O)NCC2(N3CCCCC3)CCCCC2)cc1	inactive: -0.638%
COc1cc(SC)ccc1C(=O)NCC1(N(C)C)CCCCC1	inactive: -2.68%
CN1[C@@H]2CC[C@H]1CC(OC(=O)C(O)(c1ccccc1)c1ccccc1)C2 (some centres not stated)	inactive: -4.41%
O=C(NCC1(N2CCCCC2)CCCCC1)c1cc([N+](=O)[O-])ccc1Cl	inactive: -2.51%
COc1ccc(C(=O)NCC2(N(C)C)CCCCC2)cc1	inactive: -0.25%
CCN1CCCC(OC(=O)C2(O)c3ccccc3C=Cc3ccccc32)C1 (configuration not stated)	inactive: 15.2%
Cc1cc(C(=O)NCC2(N3CCCCC3)CCCCC2)ccc1[N+](=O)[O-]	inactive: 9.38%
O=C(NCC1(N2CCCCC2)CCCCC1)c1cccc(Br)c1	inactive: 2.15%
O=C(NCC1(N2CCCCC2)CCCCC1)c1cc(F)c(F)cc1Cl	inactive: 6.04%
CN(C)CCOC(=O)C(O)(c1ccccc1)C1CCCCC1 (configuration not stated)	inactive: -7.92%
Cc1ccccc1C(=O)NCC1(N2CCCCC2)CCCCC1	inactive: -7.51%
CN(C)c1ccc(C(=O)NCC2(N(C)C)CCCCC2)cc1	inactive: 15%
CN(C)C1CCCC1OC(=O)C(O)(c1ccccc1)c1ccccc1 (configuration not stated)	inactive: 4.02%
